Results: patent US20180125993A1 (BEIJING COTIMES BIOTECH COMPANY LIMITED, priority 2014, published 2018)

Test system: MIA-PaCa-2
Assay: Human pancreatic cancer MIA-PaCa-2 subcutaneous model (34 days of treatment)
Conditions: Gemcitabine 60 mg/kg i.p. Q3d × 6W

With `Nc1ccn([C@@H]2O[C@H](CO)[C@@H](O)C2(F)F)c(=O)n1` [Gemcitabine, reference compound] the “T/C % (Calculated using tumor volumes)” value was 47.40%.
